Paper PMC10380868, “Trapa bispinosa Roxb. Pericarp Extract Exerts 5α-Reductase Inhibitory Activity in Castrated Benign Prostatic Hyperplasia Model Mice” (International Journal of Molecular Sciences, 2023)

Columns and labels:
AR-Luc/LNCaP cells [1] = assay type: cell-based
AR-Luc/LNCaP cells [2] = conditions: 24 h treatment

For C[C@]12CCC(=O)C[C@@H]1CC[C@@H]1[C@@H]2CC[C@]2(C)[C@@H](O)CC[C@@H]12 [DHT, dihydrotestosterone], the “stimulation of AR-Luc reporter activity by agonist” value (AR-Luc/LNCaP cells [1]) was “stimulated” and the “time to maximal AR-Luc reporter activity” value (AR-Luc/LNCaP cells [1]) was 24 h.

For O=c1oc2c(O)c(O)cc3c(=O)oc4c(O)c(O)cc1c4c23 [EA, ellagic acid], the “cell viability / cytotoxicity” value (AR-Luc/LNCaP cells [2]) was “without cellular toxicity”.
